Columns and labels:
Assay in all cases: Growth on various substrates (carbon substrate utilization)
Settings in all cases: 1 g/L carbon source, N2:CO2 (80%:20%), OD600
C. autoethangenum = assay type: cell-based, Clostridium autoethanogenum
Procedure: (§1) Growth was measured spectrophotometrically at 600 nm (Spectronic 20D; Milton Roy). Carbon substrate utilization was based upon growth after consecutive transfers in media containing 1 g/L of each carbon source. For carbon substrates, screening was performed under an atmosphere of N2: CO2 (80%:20%). A positive growth response was recorded for an OD600 exceeding 0.2 AU. For citrate, additional ^13C-labeled isotope experiments were conducted to determine the nature of products by analysis of final 0.2 μm-filtered product samples by carbon NMR using a Bruker UltraShield Avance 400 MHz nuclear magnetic resonance spectrometer.

C. ragsdalei = assay type: cell-based, Clostridium ragsdalei
Procedure: as §1

C. ljungdahlii PETC = assay type: cell-based, Clostridium ljungdahlii PETC
Procedure: as §1

C. coskatii PS02 = assay type: cell-based, Clostridium coskatii (PS02)
Procedure: as §1

`O=C(O)CC(C(=O)O)C(O)C(=O)O` (stereo not shown) [Iso-Citrate] was tested, and the Growth on substrate (C. autoethangenum) was “+ (A positive growth response was recorded for an OD600 exceeding 0.2 AU)”, the Growth on substrate (C. ragsdalei) was “+ (A positive growth response was recorded for an OD600 exceeding 0.2 AU)” and the Growth on substrate (C. ljungdahlii PETC) was “+ (A positive growth response was recorded for an OD600 exceeding 0.2 AU)”. For the same compound, the Growth on substrate (C. coskatii PS02) was “+ (A positive growth response was recorded for an OD600 exceeding 0.2 AU)”.

Source: patent US8802405B2, “Ethanologenic Clostridium species, Clostridium coskatii” (Coskata, Inc., priority 2010, dated 2014)
